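Briefly, cells in 96-well plates were exposed to five compound concentrations for 48 h, and endpoints were estimated by linear interpolation. Abbreviation: GI50, concentration required for 50% inhibition of growth. TGI denotes the concentration required for complete inhibition of growth.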
Columns and labels:
Assay in all cases: NCI anticancer screen, dose series, 48 h; in the data active means GI50 below about 0.43 µM; inactive means the rest
[1] = system: M14 melanoma
[2] = system: HS 578T breast
[3] = system: RPMI-8226 leukemia
[4] = system: HCT-15 colon
[5] = system: OVCAR-5 ovarian
[6] = system: SF-539 CNS
[7] = system: MALME-3M melanoma
[8] = system: ACHN renal
[9] = system: MDA-N
[10] = system: UACC-257 melanoma
[11] = system: DU-145 prostate
[12] = system: A549 NSCLC
[13] = system: MDA-MB-435
[14] = system: UO-31 renal
[15] = system: NCI-H23 lung
[16] = system: T-47D breast
[17] = system: HCC-2998 colon
[18] = system: MDA-MB-231 breast
[19] = system: TK-10 renal
[20] = system: SN12C renal
[21] = system: U251 CNS
[22] = system: SNB-19 CNS
[23] = system: COLO 205 colon
[24] = system: SK-MEL-28 melanoma
[25] = system: IGROV1 ovarian
[26] = system: HOP-62 NSCLC
[27] = system: CCRF-CEM leukemia
[28] = system: A498 renal
[29] = system: OVCAR-4 ovarian
[30] = system: LOX IMVI melanoma
[31] = system: SK-MEL-2 melanoma
[32] = system: HOP-92 NSCLC
[33] = system: NCI-H460 lung
[34] = system: SW-620 colon
[35] = system: PC-3 prostate
[36] = system: UACC-62 melanoma
[37] = system: NCI-H322M lung
[38] = system: BT-549 breast
[39] = system: OVCAR-3 ovarian
[40] = system: KM12 colon
[41] = system: NCI-H522 lung
[42] = system: SK-MEL-5 melanoma
[43] = system: HL-60(TB) leukemia
[44] = system: HT29 colon
[45] = system: MOLT-4 leukemia
[46] = system: CAKI-1 renal
[47] = system: RXF 393 renal
[48] = system: NCI/ADR-RES ovarian
[49] = system: OVCAR-8 ovarian
[50] = system: HCT-116 colon
[51] = system: NCI-H226 lung
[52] = system: SF-295 CNS
[53] = system: SK-OV-3 ovarian
[54] = system: SF-268 CNS
[55] = system: MCF7 breast
[56] = system: SNB-75 CNS
[57] = system: 786-0 renal
[58] = system: EKVX NSCLC
[59] = system: K-562 leukemia

O=[As](O)(O)c1ccc([As](=O)(O)O)cc1
inactive: GI50 [1] > 100 µM | GI50 [2] > 100 µM | GI50 [3] > 100 µM | GI50 [4] > 100 µM | GI50 [5] > 100 µM | GI50 [6] > 100 µM | GI50 [7] > 100 µM | GI50 [8] > 100 µM | GI50 [9] > 100 µM | GI50 [10] > 100 µM | GI50 [11] > 100 µM | GI50 [12] > 100 µM | GI50 [13] > 100 µM | GI50 [14] > 100 µM | GI50 [15] > 100 µM | GI50 [16] > 100 µM | GI50 [17] > 100 µM | GI50 [18] > 100 µM | GI50 [19] > 100 µM | GI50 [20] > 100 µM | GI50 [21] > 100 µM | GI50 [22] > 100 µM | GI50 [23] > 100 µM | GI50 [24] > 100 µM | GI50 [25] > 100 µM | GI50 [26] > 100 µM | GI50 [27] > 100 µM | GI50 [28] > 100 µM | GI50 [29] > 100 µM | GI50 [30] > 100 µM | GI50 [31] > 100 µM | GI50 [32] > 100 µM | GI50 [33] > 100 µM | GI50 [34] > 100 µM | GI50 [35] > 100 µM | GI50 [36] > 100 µM | GI50 [37] > 100 µM | GI50 [38] > 100 µM | GI50 [39] > 100 µM | GI50 [40] > 100 µM | GI50 [41] > 100 µM | GI50 [42] > 100 µM | GI50 [43] > 100 µM | GI50 [44] > 100 µM | GI50 [45] > 100 µM | GI50 [46] > 100 µM | GI50 [47] > 100 µM | GI50 [48] > 100 µM | GI50 [49] > 100 µM | GI50 [50] > 100 µM | GI50 [51] > 100 µM | GI50 [52] > 100 µM | GI50 [53] > 100 µM | GI50 [54] > 100 µM | GI50 [55] > 100 µM | GI50 [56] > 100 µM | GI50 [57] > 100 µM | GI50 [58] > 100 µM | GI50 [59] > 100 µM
> 100 µM: TGI [1] | TGI [2] | TGI [3] | TGI [4] | TGI [5] | TGI [6] | TGI [7] | TGI [8] | TGI [9] | TGI [10] | TGI [11] | TGI [12] | TGI [13] | TGI [14] | TGI [15] | TGI [16] | TGI [17] | TGI [18] | TGI [19] | TGI [20] | TGI [21] | TGI [22] | TGI [23] | TGI [24] | TGI [25] | TGI [26] | TGI [27] | TGI [28] | TGI [29] | TGI [30] | TGI [31] | TGI [32] | TGI [33] | TGI [34] | TGI [35] | TGI [36] | TGI [37] | TGI [38] | TGI [39] | TGI [40] | TGI [41] | TGI [42] | TGI [43] | TGI [44] | TGI [45] | TGI [46] | TGI [47] | TGI [48] | TGI [49] | TGI [50] | TGI [51] | TGI [52] | TGI [53] | TGI [54] | TGI [55] | TGI [56] | TGI [57] | TGI [58] | TGI [59]

— PubChem BioAssay (NCI)
